Assay results taken from article PMC10404681, “Intrinsic catalytic properties of histone H3 lysine-9 methyltransferases preserve monomethylation levels under low S-adenosylmethionine” (The Journal of Biological Chemistry, 2023).
Where “and” joins values, the source holds several entries; their conditions need not be identical. Equal values may be shown once.

Protein sequences, listed by entry. Tags and fused reporters are not part of them. Residues count along the entry.
UniProt Q9H5I1, 162-410: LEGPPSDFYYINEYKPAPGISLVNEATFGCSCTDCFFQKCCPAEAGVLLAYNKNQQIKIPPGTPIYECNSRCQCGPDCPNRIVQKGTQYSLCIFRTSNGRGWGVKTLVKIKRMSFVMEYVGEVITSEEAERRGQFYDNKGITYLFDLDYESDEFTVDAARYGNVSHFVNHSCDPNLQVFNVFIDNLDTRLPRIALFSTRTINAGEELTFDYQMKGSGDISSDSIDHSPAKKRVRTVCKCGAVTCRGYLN

Assays:
EHMT1 catalytic domain = target: T1, EHMT1 catalytic domain (Homo sapiens, UniProt Q9H9B1); test: Radiometric EZ-tip methyltransferase assay, steady-state kinetics, EHMT1; assay type: biochemical, H. sapiens; settings: EHMT1 25 nM, pH 7.9, 30 °C, n = 3, SD; for Km: H3(1–17)K9 peptide varied 0.05–50 μM; for Km / kcat (peptide varied) / kcat/KM (peptide): SAM fixed 50 μM; for Km / kcat (SAM varied): 20 min; for kcat (SAM varied): peptide fixed 50 μM (saturating), SAM varied 0.1–100 μM; for kcat (peptide varied) / kcat/KM (peptide): peptide varied 0.05–50 μM
T1 construct: EHMT1 = 982 to 1266; host or cells: Rosetta E. coli
T1 sequence (Q9H9B1 982-1266): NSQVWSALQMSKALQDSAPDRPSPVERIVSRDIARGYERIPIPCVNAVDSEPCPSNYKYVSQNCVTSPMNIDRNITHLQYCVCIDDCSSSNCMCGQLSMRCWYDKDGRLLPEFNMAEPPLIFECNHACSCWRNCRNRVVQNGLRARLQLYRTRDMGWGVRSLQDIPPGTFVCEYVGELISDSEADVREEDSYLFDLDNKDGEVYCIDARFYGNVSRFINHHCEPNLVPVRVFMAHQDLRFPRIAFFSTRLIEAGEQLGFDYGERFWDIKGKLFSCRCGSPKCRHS
Text: (§1) The H. sapiens EHMT1 catalytic subunit (Addgene plasmid #51314) and H. sapiens SUV39H2 catalytic subunit (Addgene plasmid #25115) E. coli expression plasmids used in this study were acquired from Addgene, made possible through a gift by Cheryl Arrowsmith. The H. sapiens EHMT2 catalytic subunit E. coli expression plasmid used in this study was provided by the laboratory of Peter W. Lewis at the University of Wisconsin-Madison. All remaining histone methyltransferase expression plasmids were generated for this study and will be made freely available from Addgene. HMT amino acids included in expression plasmids are as follows: EHMT1 = 982 to 1266; EHMT2 = 913 to 1193; SUV39H1 = full length with N-terminal maltose-binding protein; SUV39H2 = 162 to 410.
(§2) Michaelis-Menten saturation curves were generated under steady-state conditions with the non-titrated component concentration being present at ≥5× KM specific to each enzyme. 1 × 10^5 CPM values were provided by [methyl-^3H] SAM in each reaction. Reaction times and enzyme concentrations were optimized for each HMT to ensure substrate turnover remained below 20%. 50 μM H3 peptide was combined with varying SAM concentrations up to 100 μM and either EHMT1 (25 nM), EHMT2 (25 nM), SUV39H1 (100 nM), or SUV39H2 (25 nM) in histone methyltransferase (HMT) activity buffer (50 mM HEPES pH 7.9, 0.5 mM DTT, 0.1 mM AEBSF, 2 mM MgCl2, 0.01% v/v Triton X-100) with a final volume of 20 μl. Enzyme concentrations are calculated for the monomeric form. Reactions were incubated at 30 °C for 20 min before quenching with TFA for a final concentration of 2% v/v TFA. Then, the reactions were cleaned using StageTips (i.e., two Attract SPE disks (Affinisep) in a pipette tip) with 200 μl acidified water (0.5% v/v formic acid) and eluted with 100 μl elution buffer (80% v/v acetonitrile, 0.5% v/v formic acid). The eluates were added to 2 ml of Ultima Gold LSC Cocktail (Sigma-Aldrich) and counted on a scintillation counter (PerkinElmer). All CPM values were corrected for decreased StageTip capacity when peptide concentrations exceeded 10 μM.
(§3) CPM values were converted to rates of product formation (μM/min) and used to generate Michaelis-Menten kinetic constants via GraphPad Prism v9.5.0 via the following equation: Y = Et∗kcat∗X/(KM + X). Variable definitions are as follows: Y = rate of product formation/enzyme velocity; X = substrate concentration; Et = concentration of enzyme in reaction.

EHMT2 catalytic domain = target: T2, EHMT2 catalytic domain (Homo sapiens, UniProt Q96KQ7); test: Radiometric EZ-tip methyltransferase assay, steady-state kinetics, EHMT2; assay type: biochemical, H. sapiens; settings: EHMT2 25 nM, pH 7.9, 30 °C, n = 3, SD; for Km: H3(1–17)K9 peptide varied 0.05–50 μM; for Km / kcat (peptide varied) / kcat/KM (peptide): SAM fixed 50 μM; for Km / kcat (SAM varied): 20 min; for kcat (SAM varied): peptide fixed 50 μM (saturating), SAM varied 0.1–100 μM; for kcat (peptide varied) / kcat/KM (peptide): peptide varied 0.05–50 μM
T2 construct: EHMT2 = 913 to 1193; made in house; host or cells: Rosetta E. coli (plasmid from the laboratory of Peter W. Lewis)
T2 sequence (Q96KQ7 913-1193): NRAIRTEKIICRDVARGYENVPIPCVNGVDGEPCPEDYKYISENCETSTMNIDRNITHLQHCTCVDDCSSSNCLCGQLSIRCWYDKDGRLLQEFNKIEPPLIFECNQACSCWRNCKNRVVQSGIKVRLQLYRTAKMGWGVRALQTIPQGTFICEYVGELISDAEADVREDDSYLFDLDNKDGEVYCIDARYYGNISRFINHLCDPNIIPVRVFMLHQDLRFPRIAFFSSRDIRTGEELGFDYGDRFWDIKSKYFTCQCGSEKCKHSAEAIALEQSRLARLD
Text: as §1, §2, §3

SUV39H1 = target: T3, SUV39H1 (Homo sapiens, UniProt O43463); test: Radiometric EZ-tip methyltransferase assay, steady-state kinetics, SUV39H1; assay type: biochemical; settings: SUV39H1 100 nM, pH 7.9, 30 °C, n = 3, SD; for Km: H3(1–17)K9 peptide varied 0.05–50 μM; for Km / kcat (peptide varied) / kcat/KM (peptide): SAM fixed 50 μM; for Km / kcat (SAM varied): 20 min; for kcat (SAM varied): peptide fixed 50 μM (saturating), SAM varied 0.1–100 μM; for kcat (peptide varied) / kcat/KM (peptide): peptide varied 0.05–50 μM
T3 construct: made in house; host or cells: Rosetta E. coli (plasmid generated for this study)
T3 sequence (O43463 1-412): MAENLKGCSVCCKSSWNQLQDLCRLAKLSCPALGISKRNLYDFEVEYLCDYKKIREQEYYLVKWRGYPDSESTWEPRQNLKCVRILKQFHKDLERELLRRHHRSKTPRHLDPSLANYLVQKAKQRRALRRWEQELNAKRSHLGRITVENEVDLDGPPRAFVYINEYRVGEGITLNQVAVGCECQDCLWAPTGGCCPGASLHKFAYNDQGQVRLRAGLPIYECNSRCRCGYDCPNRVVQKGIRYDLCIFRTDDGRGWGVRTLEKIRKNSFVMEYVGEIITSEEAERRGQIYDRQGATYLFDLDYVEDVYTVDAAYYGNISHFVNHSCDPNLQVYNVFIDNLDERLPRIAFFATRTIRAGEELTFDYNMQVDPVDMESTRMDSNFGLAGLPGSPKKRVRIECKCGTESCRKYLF
Text: as §1, §2, §3

SUV39H2 catalytic domain = target: T4, SUV39H2 catalytic domain (Homo sapiens, UniProt Q9H5I1); test: Radiometric EZ-tip methyltransferase assay, steady-state kinetics, SUV39H2; assay type: biochemical, H. sapiens; settings: SUV39H2 25 nM, pH 7.9, 30 °C, n = 3, SD; for Km: H3(1–17)K9 peptide varied 0.05–50 μM; for Km / kcat (peptide varied) / kcat/KM (peptide): SAM fixed 50 μM; for Km / kcat (SAM varied): 20 min; for kcat (SAM varied): peptide fixed 50 μM (saturating), SAM varied 0.1–100 μM; for kcat (peptide varied) / kcat/KM (peptide): peptide varied 0.05–50 μM
T4 construct: SUV39H2 = 162 to 410; host or cells: Rosetta E. coli
Text: as §1, §2, §3

Row | Substance | Km (EHMT1 catalytic domain) [µM] | kcat (SAM varied) (EHMT1 catalytic domain) | kcat (peptide varied) (EHMT1 catalytic domain) [s⁻¹] | kcat/KM (peptide) (EHMT1 catalytic domain) [M⁻¹ s⁻¹] | Km (EHMT2 catalytic domain) [µM] | kcat (SAM varied) (EHMT2 catalytic domain) | kcat (peptide varied) (EHMT2 catalytic domain) [s⁻¹] | kcat/KM (peptide) (EHMT2 catalytic domain) [M⁻¹ s⁻¹] | Km (SUV39H1) [µM] | kcat (SAM varied) (SUV39H1) | kcat (peptide varied) (SUV39H1) [s⁻¹] | kcat/KM (peptide) (SUV39H1) [M⁻¹ s⁻¹] | Km (SUV39H2 catalytic domain) [µM] | kcat (SAM varied) (SUV39H2 catalytic domain) [s⁻¹] | kcat (peptide varied) (SUV39H2 catalytic domain) [s⁻¹] | kcat/KM (peptide) (SUV39H2 catalytic domain) [M⁻¹ s⁻¹]
1 | H3K9me1: H3(1–17) K9 monomethylated peptide substrate | 3.4 ± 0.72 | 0.0335 s⁻¹ and 0.0335 ± 0.0025 s⁻¹ | 0.036 ± 0.00267 | 10800 ± 2170 | 1.68 ± 0.17 | 0.0358 s⁻¹ and 0.0358 ± 0.00383 s⁻¹ | 0.0567 ± 0.00067 | 34000 ± 3000 | 1.03 ± 0.14 | 0.005 s⁻¹ and 0.005 ± 0.00083 s⁻¹ | 0.0075 ± 0.001 | 7500 ± 330 | 4.26 ± 0.23 | 0.059 ± 0.00383 | 0.109 ± 0.0013 | 25500 ± 1500
2 | H3K9me2: H3(1–17) K9 dimethylated peptide substrate | 64.6 | 0.0112 ± 0.00033 s⁻¹ | 0.021 ± 0.00467 | 330 ± 67 | 6.51 ± 1.6 | 0.0175 ± 0.0012 s⁻¹ | 0.008 ± 0.0012 | 1300 ± 170 | 10.4 ± 2.78 | 0.0005 s⁻¹ and 0.0005 ± 0.00017 s⁻¹ | 0.0015 ± 0.00017 | 170 ± 50 | 8.01 ± 2.95 | 0.0703 ± 0.00583 | 0.0563 ± 0.0187 | 7170 ± 1830
3 | H3K9un: H3(1–17) K9 unmodified peptide substrate | 1.68 ± 0.13 | 0.212 s⁻¹ and 0.2115 ± 0.0108 s⁻¹ | 0.1852 ± 0.00533 | 111000 ± 12000 | 3.62 ± 0.87 | 0.127 s⁻¹ and 0.127 ± 0.00183 s⁻¹ | 0.156 ± 0.00983 | 44300 ± 7670 | 0.6 ± 0.08 | 0.00717 ± 0.00067 s⁻¹ | 0.0102 ± 0.00083 | 17200 ± 3000 | 1.62 ± 0.09 | 0.0668 ± 0.00567 | 0.0877 ± 0.0025 | 54300 ± 3670
